# Several values for one entry are separate records, joined by “and”; a condition that tells them apart may be missing. Equal entries are not always repeated.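 Cultured in 96-well plates, cells were exposed to test compound for 48 hours across five concentrations. Here, GI50 denotes the concentration required for 50% inhibition of growth. The concentration for full growth arrest is given as TGI.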
# What was measured:
# Test in all cases: NCI tumour cell line growth inhibition, 48 h
# CAKI-1 renal = tested on: CAKI-1 renal
# P388/ADR leukemia = tested on: P388/ADR leukemia
# HL-60(TB) leukemia = tested on: HL-60(TB) leukemia
# SF-539 CNS = tested on: SF-539 CNS
# T-47D breast = tested on: T-47D breast
# DMS 273 small cell lung = tested on: DMS 273 small cell lung
# NCI-H226 lung = tested on: NCI-H226 lung
# SN12K1 renal = tested on: SN12K1 renal
# HOP-92 NSCLC = tested on: HOP-92 NSCLC
# DLD-1 colon = tested on: DLD-1 colon
# HCC-2998 colon = tested on: HCC-2998 colon
# DMS 114 small cell lung = tested on: DMS 114 small cell lung
# NCI-H23 lung = tested on: NCI-H23 lung
# NCI-H460 lung = tested on: NCI-H460 lung
# MOLT-4 leukemia = tested on: MOLT-4 leukemia
# KM20L2 colon = tested on: KM20L2 colon
# MALME-3M melanoma = tested on: MALME-3M melanoma
# K-562 leukemia = tested on: K-562 leukemia
# RXF-631 renal = tested on: RXF-631 renal
# P388 leukemia = tested on: P388 leukemia
# ACHN renal = tested on: ACHN renal
smiles,measurement,setting,value
CN(CCCl)CCCl,TGI,CAKI-1 renal,1.24 µM and 6.57 µM and 11 µM
same,GI50,P388/ADR leukemia,0.0571 µM
same,TGI,P388/ADR leukemia,2.67 µM
same,TGI,HL-60(TB) leukemia,1.94 µM and 4.58 µM and 1.53 µM
same,GI50,SF-539 CNS,1.44 µM [middle of 4 runs]
same,TGI,SF-539 CNS,7.09 µM [middle of 4 runs]
same,TGI,T-47D breast,8.38 µM [middle of 4 runs]
same,GI50,DMS 273 small cell lung,0.432 µM
same,TGI,DMS 273 small cell lung,6.89 µM
same,TGI,NCI-H226 lung,42.3 µM [middle of 4 runs]
same,GI50,SN12K1 renal,3.82 µM
same,TGI,SN12K1 renal,26.8 µM
same,TGI,HOP-92 NSCLC,4.92 µM [middle of 4 runs]
same,GI50,DLD-1 colon,3.4 µM
same,TGI,DLD-1 colon,22.4 µM
same,TGI,HCC-2998 colon,14.1 µM [middle of 4 runs]
same,GI50,DMS 114 small cell lung,2.26 µM
same,TGI,DMS 114 small cell lung,11.5 µM
same,TGI,NCI-H23 lung,12 µM [middle of 4 runs]
same,GI50,NCI-H460 lung,0.225 µM and 0.142 µM
same,TGI,NCI-H460 lung,2.49 µM and 2.51 µM and 5.27 µM
same,TGI,MOLT-4 leukemia,3.48 µM and 9.28 µM and 2.76 µM
same,GI50,KM20L2 colon,4.46 µM
same,TGI,KM20L2 colon,14.1 µM
same,TGI,MALME-3M melanoma,4.9 µM [middle of 4 runs]
same,GI50,K-562 leukemia,13.2 µM and 7.56 µM and 13.6 µM
same,TGI,K-562 leukemia,83.9 µM and 135 µM
same,GI50,RXF-631 renal,5.05 µM
same,TGI,RXF-631 renal,14 µM
same,GI50,P388 leukemia,0.0547 µM
same,TGI,P388 leukemia,0.966 µM
same,GI50,ACHN renal,0.349 µM and 0.399 µM and 0.216 µM
same,TGI,ACHN renal,7.99 µM and 5.18 µM and 7.92 µM
